Values quoted from earlier work, collected in paper PMC5558795 (Antiviral research, 2017).

Chains of the proteins cited; added tags and fusions are not shown. Residues count along the entry.
UniProt Q9Q6P4, 1506-1683: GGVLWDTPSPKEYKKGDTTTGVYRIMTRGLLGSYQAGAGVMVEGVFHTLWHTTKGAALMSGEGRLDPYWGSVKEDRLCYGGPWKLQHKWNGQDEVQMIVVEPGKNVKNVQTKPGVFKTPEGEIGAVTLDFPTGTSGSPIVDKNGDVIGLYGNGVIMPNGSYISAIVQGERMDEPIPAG
UniProt Q9Q6P4, 1428-1467: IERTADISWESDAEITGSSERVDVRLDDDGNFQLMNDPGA

Target: WNV NS2B-NS3pro (West Nile virus, UniProt Q9Q6P4)
Conditions: read-out: IC50, WNV NS2B-NS3pro; ref Shiryaev et al., 2006; cited from earlier work

Q: Which IC50 does the source give for aprotinin here?
A: Its IC50 is 20 nM.
